Experimental findings from patent US20210283217A1, “NEUROMODULATING COMPOSITIONS AND RELATED THERAPEUTIC METHODS FOR THE TREATMENT OF INFLAMMATORY AND AUTOIMMUNE DISEASES” (Flagship Pioneering Innovations V, Inc., priority 2016, published 2021) are described below.

The subject of the experiment is macrophages. The experiment can be described thus: Macrophage activation and cytokine secretion assay (M1/M2 polarization). Format: cell-based, human. The procedure:
Peripheral blood mononuclear cells (PBMCs) were isolated from whole blood by ficoll density separation. Briefly, blood was diluted 1:2 with 0.5 mM EDTA solution in PBS, loaded onto a Ficoll-filled Leucosep tube (Greiner Bio-One), and centrifuged for 20 minutes at 1000×g. After centrifugation, the leukocyte/PBMC layer was collected and sequentially washed three times with 0.5 mM EDTA solution in PBS.
Monocytes (CD14+) were isolated from PBMCs using magnetic bead-based separation following vendor specifications, e.g., Biolegend MojoSort Human CD14 Selection Kit protocol. In brief, PBMCs were labeled with biotinylated antibodies against cell surface receptors for cells not in the population of interest. The labeled cells are then captured by streptavidin-coated magnetic beads and removed by magnetic incubation. […]
Supernatants were collected at 24, 48, and 72 hrs and cytokine secretion was analyzed by flow cytometry using a LEGENDplex assay (BioLegend). […] The beads were then stained and the captured cytokine composition assessed by flow cytometry.
M1 macrophage polarization is defined as increase in production of IL-12, TNF, IL-6, IL-8, IL-1B, MCP-1 and CCL2. Additionally, markers of M1 polarization that can be detected by RNA include Nos2. […] Additionally, markers of M2 polarization that can be detected by RNA include Arg1, IDO, PF4, CCL24, IL10, and IL4Ralpha.

As for “CGRP (ACDTATCVTHRLAGLLSRSGGVVKNNFVPTNVGSKAF; Calcitonin gene-related peptide 1; UniProt P06881 83-119, looked up) [neuropeptide CGRP]”, where the note is “M1 marker”, the “macrophage secretion of TNFα” value is reported as “increased”. For the same substance, the macrophage polarization phenotype result (monocyte-derived macrophages, dilutions from 10 μM to 1 nM) is “polarized toward an M1 phenotype”.
